Reference: patent US20160274108A1, “DIAGNOSTIC METHODS FOR PAR4 ANTAGONIST THERAPY” (BRISTOL-MYERS SQUIBB COMPANY, priority 2013, published 2016)

By UniProt entry, the sequences of proteins in these tests, tags left out. Residues count along the entry.
UniProt Q96RI0, 48-385 limits assumed: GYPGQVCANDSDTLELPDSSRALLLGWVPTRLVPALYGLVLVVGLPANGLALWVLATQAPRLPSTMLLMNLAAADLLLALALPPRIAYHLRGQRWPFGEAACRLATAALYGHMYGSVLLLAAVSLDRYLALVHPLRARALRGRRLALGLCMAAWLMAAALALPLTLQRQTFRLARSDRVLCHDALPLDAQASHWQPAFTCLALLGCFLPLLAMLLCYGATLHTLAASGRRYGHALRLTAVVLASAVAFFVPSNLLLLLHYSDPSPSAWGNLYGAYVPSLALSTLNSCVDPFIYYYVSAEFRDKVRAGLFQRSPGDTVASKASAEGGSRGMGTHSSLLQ

molecular target: washed platelet suspension (Homo sapiens, UniProt Q96RI0); assay: PAR4 agonist peptide induced platelet aggregation assay (96-well microplate); type: cell-based; conditions: read-out: ED50 (μM) [Platelet Aggregation]; washed platelets, 37° C., read at 405 nm up to 15 minutes

| SMILES | EC50 [µM] |
| --- | --- |
| CC(C)C[C@H](NC(=O)[C@H](Cc1ccncc1)NC(=O)CNC(=O)[C@@H]1CCCN1C(=O)[C@H](Cc1ccc(F)cc1)NC(=O)[C@H](C)N)C(=O)N[C@H](C(N)=O)C(C)C | 1.7 |
| CC(C)C[C@H](NC(=O)[C@H](Cc1ccsc1)NC(=O)CNC(=O)[C@@H]1CCCN1C(=O)[C@H](Cc1ccc(F)cc1)NC(=O)[C@H](C)N)C(=O)N[C@H](C(N)=O)C(C)C | 1.6 |
| CC(C)C[C@H](NC(=O)C(Cc1c[nH]c2ccc(Br)cc12)NC(=O)CNC(=O)[C@@H]1CCCN1C(=O)[C@H](Cc1ccc(F)cc1)NC(=O)[C@H](C)N)C(=O)N[C@H](C(N)=O)C(C)C (some centres unmarked) | 0.67 |
| CC(C)C[C@H](NC(=O)[C@@H]1Cc2c([nH]c3ccccc23)CN1C(=O)CNC(=O)[C@@H]1CCCN1C(=O)[C@H](Cc1ccc(F)cc1)NC(=O)[C@H](C)N)C(=O)N[C@H](C(N)=O)C(C)C | 37 |
| CC(C)C[C@H](NC(=O)[C@@H](Cc1c[nH]c2ccccc12)NC(=O)CNC(=O)[C@@H]1CCCN1C(=O)[C@H](Cc1ccc(F)cc1)NC(=O)[C@H](C)N)C(=O)N[C@H](C(N)=O)C(C)C | 12.3 |
| CC(C)C[C@H](NC(=O)[C@H](Cc1cscn1)NC(=O)CNC(=O)[C@@H]1CCCN1C(=O)[C@H](Cc1ccc(F)cc1)NC(=O)[C@H](C)N)C(=O)N[C@H](C(N)=O)C(C)C | 5.5 |
| CC(C)C[C@H](NC(=O)[C@H](Cc1c[nH]c2ccc(O)cc12)NC(=O)CNC(=O)[C@@H]1CCCN1C(=O)[C@H](Cc1ccc(F)cc1)NC(=O)[C@H](C)N)C(=O)N[C@H](C(N)=O)C(C)C | 0.97 |
| CC(C)C[C@H](NC(=O)[C@H](Cc1ccccc1)NC(=O)CNC(=O)[C@@H]1CCCN1C(=O)[C@H](Cc1ccc(F)cc1)NC(=O)[C@H](C)N)C(=O)N[C@H](C(N)=O)C(C)C | 1.2 |
| CC(C)C[C@H](NC(=O)[C@H](Cc1c[nH]cn1)NC(=O)CNC(=O)[C@@H]1CCCN1C(=O)[C@H](Cc1ccc(F)cc1)NC(=O)[C@H](C)N)C(=O)N[C@H](C(N)=O)C(C)C | 106 |
| CC(C)C[C@H](NC(=O)[C@H](Cc1ccccn1)NC(=O)CNC(=O)[C@@H]1CCCN1C(=O)[C@H](Cc1ccc(F)cc1)NC(=O)[C@H](C)N)C(=O)N[C@H](C(N)=O)C(C)C | 52 |
| CC(C)C[C@H](NC(=O)[C@H](Cc1ccoc1)NC(=O)CNC(=O)[C@@H]1CCCN1C(=O)[C@H](Cc1ccc(F)cc1)NC(=O)[C@H](C)N)C(=O)N[C@H](C(N)=O)C(C)C | 4.1 |
| CC(C)C[C@H](NC(=O)[C@H](Cc1ccc(O)cc1)NC(=O)CNC(=O)[C@@H]1CCCN1C(=O)[C@H](Cc1ccc(F)cc1)NC(=O)[C@H](C)N)C(=O)N[C@H](C(N)=O)C(C)C | 0.79 |
| CC(C)C[C@H](NC(=O)[C@H](Cc1cccnc1)NC(=O)CNC(=O)[C@@H]1CCCN1C(=O)[C@H](Cc1ccc(F)cc1)NC(=O)[C@H](C)N)C(=O)N[C@H](C(N)=O)C(C)C | 1 |
| CC(C)C[C@H](NC(=O)[C@H](C/C=C/c1ccccc1)NC(=O)CNC(=O)[C@@H]1CCCN1C(=O)[C@H](Cc1ccc(F)cc1)NC(=O)[C@H](C)N)C(=O)N[C@H](C(N)=O)C(C)C | 3 |
